## scFv variants of Ab-95 (light chain) against a SARS-CoV-2 spike peptide

Target: peptide PDVDLGDISGINAS, taken from heptad repeat 2 (HR2) of SARS-CoV-2 spike.

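The starting antibody came from a phage panning campaign against this peptide. AAYL52 was designed without a model: most single CDR substitutions and a random sample of double and triple ones. In AlphaSeq, yeast of one mating type display the scFv and yeast of the other type display the target. Mating (16 h, 30 °C) was followed by selection of diploids and sequencing of their barcodes. Each replicate has its own calibration line, from reference interactions of the BCL2 family. There are three technical replicates.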

The variants keep the heavy chain, the linker and the frameworks of Ab-95 (scFv order VH, three GGGGS repeats, VL).
VH: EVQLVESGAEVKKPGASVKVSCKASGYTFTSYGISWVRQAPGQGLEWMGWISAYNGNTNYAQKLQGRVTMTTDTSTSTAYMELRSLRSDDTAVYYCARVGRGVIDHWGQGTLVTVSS
VL: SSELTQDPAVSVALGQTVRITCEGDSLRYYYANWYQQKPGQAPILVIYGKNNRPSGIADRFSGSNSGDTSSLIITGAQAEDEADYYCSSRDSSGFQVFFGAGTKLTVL

Each variant is given by its three light chain CDRs, as the data file delimits them; those of the parent are EGDSLRYYYAN, GKNNRPS, SSRDSSGFQVF. Affinities are written as log10 Kd with Kd in nM; a lower number is a better binder. Averages over replicates are reported, and they cover detected replicates only. Where no diploid with the target was found in that replicate, the entry reads "ND": below detection, most likely a poor binder, though not proof of it. Nonspecific signal, from three strains lacking the peptide, appeared in 28% of pairings of library AAYL52, centred on 3.91 (5% of these signals below 2.90); values are not corrected for it. The control count says in how many pairings with the empty strains this scFv gave a signal, with their mean in brackets.

CDR-L1	CDR-L2	CDR-L3	log10 Kd, replicates	mean, log10 nM	control signals
EGDSLRYYYAN	GKNNRPW	SSRDSNGFEVF	ND 3.37 2.76	3.06	0/9
EGDSLRYYYAN	QKNNPPS	SSWDSSGFQVF	ND ND ND	ND	0/9
EGDSLRYYYAN	GKDNRPS	SWRDSSGFQVR	2.63 2.22 2.19	2.35	2/9 (3.93)
EGDSLREYYAN	GKNNRPS	SSRDSSGFQWF	3.58 2.78 2.51	2.96	2/9 (4.31)
EGDSLRYYYAN	GKNNPWS	SSRDSSGAQVF	3.21 ND 3.48	3.34	3/9 (4.44)
EGDSLRYYCAN	GFNNRPC	SSRDSSGFQVF	4.06 4.46 3.25	3.92	1/9 (4.50)
EGDSLRYYYAN	GKDYRPS	SSRDSVGFQVF	3.52 3.55 3.61	3.56	3/9 (4.72)
EGDSLRYLYAN	GKNNRPS	SSRNSSGFQVY	ND ND ND	ND	0/9
EGDSLRYYYAN	GKNNREP	SSRDSSGFQDF	2.97 3.76 3.95	3.56	2/9 (3.76)
EGDSLRYYYAN	GDNNRPS	SCRDSSGFQCF	2.44 2.42 2.24	2.37	1/9 (3.55)
EGDVLRYYYAN	GKINRPS	SSRDSSGFQMF	4.37 ND ND	4.37	4/9 (4.25)
EGDSLRYYYAN	GDNNRKS	SSRDSLGFQVF	3.12 2.96 ND	3.04	2/9 (3.44)
EGDILCYYYAN	GKNNRPS	SSRDSQGFQVF	ND 5.70 3.53	4.62	3/9 (4.14)
EVDSLRYYYWN	GKNNRPS	SSRDSSGFYVF	ND ND ND	ND	0/9
EGDSLRYYNAN	GKNNRIA	SSRDSSGFQVF	1.74 1.95 1.42	1.70	1/9 (4.98)
EGDILRYYYAN	GKNNYPS	SDRDSSGFQVF	ND ND 4.33	4.33	0/9
EDDSNRYYYAN	GKNNRPS	SSRDSSGFVVF	2.73 ND ND	2.73	3/9 (3.97)
EGDSLRYYYAN	GFENRPS	SSRDSSGFQYF	ND ND ND	ND	0/9
YGDCLRYYYGN	GKNNRPS	SSRDSSGFQVF	ND ND ND	ND	1/9 (3.59)
EGDSLRYYYAN	GKNNRPS	SSRDSSPFQNF	3.43 3.01 ND	3.22	0/9
TGDSLRYYYAN	GKNNRPS	SSRDSSGFQNF	2.33 2.49 2.12	2.31	1/9 (3.47)
EGDSLRYYYAN	GKNNRPS	MSRDSSGTQAF	2.46 2.49 1.81	2.25	2/9 (4.23)
EGDSLRYNYAN	GKNRTPS	SSRDSSGFQVF	0.99 1.05 0.41	0.81	5/9 (4.04)
EGDSLSYYYAN	GKNHRPS	SSRDSSKFQVF	ND ND ND	ND	0/9
EGDSLRYFYAN	MKNNRPS	SSRDSSGFCVF	4.64 ND 4.63	4.63	2/9 (4.22)
EGDKLRYYYAN	GKNNRPS	SSRDSWGFQVQ	3.65 ND 4.34	3.99	6/9 (3.98)
EGDSLRYYDWN	GKNNRPS	SSVDSSGFQVF	4.46 3.37 ND	3.91	3/9 (3.24)
EGLSLRYYYAN	GKDNRPS	SSRDSSGFQMF	ND ND ND	ND	0/9
EGDSLRYYPAN	GKNARPS	SSRDSSGFQVF	1.19 1.16 0.60	0.98	5/9 (4.74)
EGASLRYYYAN	GMNNRPF	SSRDSSGFQVF	2.94 2.68 2.67	2.76	5/9 (4.17)
EGDSLRMYYAN	KKNNRPS	SSRDSSGFQVS	ND ND ND	ND	2/9 (3.86)
EGLSLRYYYAN	GKNNRPS	SSRDSSGFNYF	4.63 2.86 3.88	3.79	5/9 (3.72)
EGDSLRYYYAN	GKQNRPS	VSRDSSGFQNF	ND ND ND	ND	0/9
TGDSLRYYYAN	GKNNRPS	SSRDQSGFCVF	ND 4.46 3.71	4.09	4/9 (4.32)
EGDSLRYYDMN	GKNNRPS	SWRDSSGFQVF	2.39 2.01 2.04	2.15	2/9 (4.50)
EGDSGRYYYEN	SKNNRPS	SSRDSSGFQVF	ND ND ND	ND	4/9 (4.10)
EGDSLRYGYAN	GKNNRPS	TSRTSSGFQVF	1.80 2.04 1.05	1.63	3/9 (4.16)
EGDSLRYYYAV	GVNYRPS	SSRDSSGFQVF	3.50 ND ND	3.50	4/9 (4.19)
DGDSLRRYYAN	GKNNIPS	SSRDSSGFQVF	ND ND 3.46	3.46	3/9 (4.38)
EGDSLRYYYAN	GKNNWPS	SSRDSSGAQVF	4.79 ND ND	4.79	3/9 (3.55)
EGMSLRYYYAN	GKNNYPS	SSRDFSGFQVF	5.36 ND ND	5.36	3/9 (4.09)
CFDSLRYYYAN	GKNNRPP	SSRDSSGFQVF	2.54 3.63 4.58	3.58	2/9 (3.82)
EGDSLRGYYWN	GKNNRPK	SSRDSSGFQVF	3.78 ND ND	3.78	4/9 (3.91)
ELDSLRYYYAH	GKNNRCS	SSRDSSGFQVF	3.48 3.40 3.95	3.61	3/9 (3.51)
EGDSLRYYYAC	GKNNRPS	ESHDSSGFQVF	ND 4.89 ND	4.89	0/9
EGDSLRYYYAN	GKNNRPS	SSRISKPFQVF	ND 3.48 4.19	3.83	0/9
EGVSLRYYYAN	GKNWRPS	SSRSSSGFQVF	4.64 5.38 3.13	4.39	2/9 (3.08)
EGDWLRYYYAN	MKNNRPE	SSRDSSGFQVF	3.93 3.81 4.46	4.07	4/9 (4.30)
EGMSLRYQYAN	GKNNMPS	SSRDSSGFQVF	1.94 2.09 1.36	1.80	1/9 (3.85)
EYDSLRYYYSN	GKNNRPS	SMRDSSGFQVF	3.68 ND ND	3.68	0/9
EGDSLRYYYAN	GNYNRPS	SSRDSSGFQVF	2.61 2.82 2.26	2.56	1/9 (3.43)
EGDSLRFYYAN	GKNNRPS	SSYDSAGFQVF	3.30 3.10 3.24	3.21	5/9 (4.13)

The first 4 variants above that were never detected:

{"CDR-L1": "EGDSLRYYYAN", "CDR-L2": "QKNNPPS", "CDR-L3": "SSWDSSGFQVF", "log10 Kd, replicates": "ND ND ND", "mean, log10 nM": "ND", "control signals": "0/9"}
{"CDR-L1": "EGDSLRYLYAN", "CDR-L2": "GKNNRPS", "CDR-L3": "SSRNSSGFQVY", "log10 Kd, replicates": "ND ND ND", "mean, log10 nM": "ND", "control signals": "0/9"}
{"CDR-L1": "EVDSLRYYYWN", "CDR-L2": "GKNNRPS", "CDR-L3": "SSRDSSGFYVF", "log10 Kd, replicates": "ND ND ND", "mean, log10 nM": "ND", "control signals": "0/9"}
{"CDR-L1": "EGDSLRYYYAN", "CDR-L2": "GFENRPS", "CDR-L3": "SSRDSSGFQYF", "log10 Kd, replicates": "ND ND ND", "mean, log10 nM": "ND", "control signals": "0/9"}

Source: Engelhart et al. 2022 (doi:10.1038/s41597-022-01779-4), MIT Lincoln Laboratory and A-Alpha Bio; data file from the FLAb repository.